The text below walks through data of ChEMBL document CHEMBL4428025 (J Med Chem, 2016).

Chains of the proteins cited; added tags and fusions are not shown.
UniProt P35372, whole entry: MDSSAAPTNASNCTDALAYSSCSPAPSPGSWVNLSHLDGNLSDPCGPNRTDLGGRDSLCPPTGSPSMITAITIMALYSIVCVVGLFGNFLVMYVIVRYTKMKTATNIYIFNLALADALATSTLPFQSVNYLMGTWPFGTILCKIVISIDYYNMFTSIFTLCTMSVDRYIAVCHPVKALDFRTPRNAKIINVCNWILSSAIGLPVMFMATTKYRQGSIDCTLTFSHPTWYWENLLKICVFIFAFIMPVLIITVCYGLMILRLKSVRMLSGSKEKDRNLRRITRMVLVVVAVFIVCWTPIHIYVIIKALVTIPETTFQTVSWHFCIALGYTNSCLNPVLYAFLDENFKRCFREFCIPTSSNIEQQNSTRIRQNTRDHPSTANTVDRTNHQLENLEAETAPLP

The assay addresses Mu-type opioid receptor (Homo sapiens, UniProt P35372). Description: Displacement of [3H]-naloxone from human mu opioid receptor expressed in HEK293 cell membranes. (In general: Displacement assays read how much labelled ligand stays bound in the presence of the test substance.)

What is called Ki is a measure of affinity in units of concentration, obtained from inhibition or displacement. A low value points to tighter binding.

As to `O=C1NCN(c2ccccc2)C12CCN([C@H]1Cc3cccc4cccc1c34)CC2`, the Ki worked out at 5.9 nM.
